The values below come from BindingDB's records for 16140009 (Universit&#233, 2005).

Structures are written as SMILES.

As a reminder, the IC50 is the concentration that inhibits the measured activity by half.

This test deals with Sigma non-opioid intracellular receptor 1 (Homo sapiens, UniProt Q99720). Kind of test: Inhibitory activity against Opioid receptor sigma 1 in guinea pig cerebral cortex using [3H](+)-pentazocine as radio ligand at pH 7.5 for 150 min at 22 C.

The compound `O=c1n2c(c(O)n1C1CCN(Cc3ccccc3)CC1)Cc1ccccc1C2` showed an IC50 of 2.4 nM.
